Results: patent US20190167576A1, “USE OF HIGH AFFINITY MONOCLONAL ANTIBODY PRODUCT BINDERS TO INCREASE THE DURATION OF ACTION OF T[…] PRODUCTS IN A BIOLOGIC TISSUE” (priority 2016, published 2019)
Like-named read-outs stand apart in the source and are kept apart here.

Legend:
ARPE-19 cells = conditions: concentrations of 0.1 mg/mL or lower; viability test on day 3
[1] = tested on: New Zealand White (NZW) Rabbits; conditions: Day 1 and Day 8, eyes enucleated day 14
[2] = target: monoclonal antibody products; conditions: binding to monoclonal antibody products; read-out: dissociation constant (KD)

Substance	cytotoxicity (percentage survival versus growth media only) (ARPE-19 cells)	inflammatory infiltrate in cornea, anterior chamber, angle, vitreous/retina (H&E histopathology) ([1]; 0.31 mg/eye intravitreal)	Kd [2]	inflammatory infiltrate in cornea, anterior chamber, angle, vitreous/retina (H&E histopathology) ([1]; 0.35 mg/eye intravitreal)
Protein A	low cytotoxicity	significant inflammatory infiltrate		
Z domain [SEQ ID NO: 3]			< 10 nM	significant inflammatory infiltrate
